In the data set the target is T1, Organic anion transporter 3 (Mus musculus, UniProt O88909).
T1 sequence (O88909 whole entry): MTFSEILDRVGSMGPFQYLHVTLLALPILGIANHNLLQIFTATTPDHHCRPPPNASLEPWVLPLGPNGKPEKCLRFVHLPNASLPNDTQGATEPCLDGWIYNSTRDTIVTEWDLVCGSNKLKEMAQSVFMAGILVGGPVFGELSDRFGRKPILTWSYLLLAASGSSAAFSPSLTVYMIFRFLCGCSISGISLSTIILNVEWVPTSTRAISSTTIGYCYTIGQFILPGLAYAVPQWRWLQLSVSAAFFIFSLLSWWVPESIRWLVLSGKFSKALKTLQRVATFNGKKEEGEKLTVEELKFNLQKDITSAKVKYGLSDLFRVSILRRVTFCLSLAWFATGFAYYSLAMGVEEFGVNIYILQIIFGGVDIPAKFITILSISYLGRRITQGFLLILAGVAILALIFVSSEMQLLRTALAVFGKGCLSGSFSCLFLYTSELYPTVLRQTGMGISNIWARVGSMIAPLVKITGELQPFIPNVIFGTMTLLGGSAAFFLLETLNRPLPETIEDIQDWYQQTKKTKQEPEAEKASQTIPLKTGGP
The experiment in a line: Inhibition of mouse OAT3 expressed in CHO cells assessed as inhibition of fluorescein uptake at 500 uM over 20 mins relative to untreated-control. The data set is classed as ADME, cell-based.

The structures appear in SMILES notation.

Consider `CC1=C(C(=O)O)N2C(=O)[C@@H](NC(=O)[C@H](N)c3ccccc3)[C@H]2SC1` [CEPHALEXIN ANHYDROUS], for which the “inhibition (INH)” value is listed as “Not Active”.
